# Bioassay records as filed in PubChem BioAssay.
# Nrf2 inh: inhibitors of Nrf2 signaling | A549 ARE-Fluc reporter, luciferase luminescence, 18-24 h | Potency, µM (highest dose often 46 µM), usual class: inhibitors | hit rate 2.1% among 360,000 | AID 504444; note: nearly all actives have a fitted effect of over 60% in size
#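 In this cell-based qHTS, ARE-driven firefly luciferase in A549 cells reports Nrf2 activity; the luminescent signal after BugLite lysis is the measured value, with a prior CellTiter-Fluor read for cell health.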
# miR-21 reporter: miR-21 reporter, rising signal; HeLa miR-21 FLuc reporter, luciferase, 48 h; Potency, µM (titrated, usually from 38.3 µM); AID 2288; 340,000 tested, under 10 active; active = well fitted rising curve with a large enough effect; inconclusive = small, poorly fitted or top-dose-only effect; inactive = no such curve, though single readings can be large or run the other way;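 further: miR-21 action dims this reporter so a rising signal means less miR-21 action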
#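 Using DMEM plus 10% FBS, HeLa miR-21-FLuc cells are incubated with test compounds (final up to about 40uM) for 48 hours; firefly luciferase signal is then imaged following reagent-mediated lysis.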
# Glioma ERSR ind: inducers of ER stress response in human glioma cells; U87-MG GRP78 promoter luciferase reporter, 16 h; Potency, µM, usual class: activators; hit rate 0.02% among 420,000; AID 602332; note: series mostly up to about 76 µM; nearly all actives have a fitted effect of over 35% in size
#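 Stably transfected U87-MG human glioma cells carrying a GRP78-based luminescent sensor were seeded at 1000 cells/well, pin-dosed with compounds and incubated 16 h. Luciferase reagent was then added, and end-point luminescence was read after 10 min at room temperature.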
# TSG101-PTAP inh: blocks PTAP/TSG101 interaction to inhibit HIV-1 budding. AID 493005. Potency, µM (series often up to 115 µM), actives largely listed as inhibitors. Q99816. Fluorescence polarization, FITC-PTAP peptide / Tsg101 binding. 340,000 tested, under 10 active; active = well fitted inhibition curve with a large enough effect in the main read-out, with a control signal flat, not every such curve was filed as active; inconclusive = small, poorly fitted or top-dose-only effect, or effect the other way, or a change in a side signal; inactive = no such curve, though single readings can be large or run the other way
#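 Steps: Tsg101 binding domain dispensed (10 uM final), compounds pinned in DMSO, FITC-labeled PTAP-motif peptide added (50 nM final); after 20 min binding at room temperature, polarization measured.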
# A549 tox: kills or reduces viability of A549 cells in Nrf2 counter-screen; A549 ARE-Fluc cells, CellTiter-Fluor viability, 18-24 h; Potency, µM (doses to about 46 µM), actives largely listed as inhibitors; hit rate 0.16% among 390,000
#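 Cytotoxicity counterscreen: CellTiter-Fluor fluorescence was measured in A549 ARE_Fluc cells after 18-24 h of compound exposure in a concentration series. The subsequent BugLite luminescent read reports ARE-luciferase activity.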
# Nrf2 ARE act: activates Nrf2 signaling | hit rate 0.31% among 410,000 | Potency, µM (top dose mostly 46.1 µM), actives largely listed as activators | AREc32 ARE-luciferase reporter (MCF7-derived line), luminescence, 24 h; note: nearly all actives have a fitted effect of over 65% in size
#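 ARE-driven firefly luciferase activity in AREc32 cells measured after a 24 hr compound exposure at 37 deg C, using Steady-Glo reagent and a 30 min room-temperature hold.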
# A number is an active result; – = inactive; ? = inconclusive; · = not tested or not shown; [ ] = another dose, or the depositor's remark. Sampled rows, rich in hits. Any-hit rate of the full collection: about 2.1%. Unless noted, calls come from the whole dose curve; as a rule, active = well fitted curve in the direction sought with a large enough effect; inconclusive = small, poorly fitted or top-dose-only effect, or another doubt; inactive = no such curve, though single readings can be large; an effect the other way counts as inactive or inconclusive.
SMILES,Nrf2 inh,miR-21 reporter,Glioma ERSR ind,TSG101-PTAP inh,A549 tox,Nrf2 ARE act
COc1ccc(NC(=O)CN2CCCN(S(=O)(=O)c3ccc(Br)cc3)CC2)c(OC)c1,20.6µM,?,–,·,18.4µM,–
CN(CC(=O)Nc1ccc(F)cc1)c1ccc(S(=O)(=O)N2CCCCC2)cc1[N+](=O)[O-],13µM,–,–,–,–,–[9.22 µM]
COc1ccc(S(=O)(=O)N2CCCCCC2)cc1C(=O)N(C)CC(=O)Nc1ccc(F)cc1,–,·,–,–,–,–
COCc1c(C(=O)NC2CCCCC2)cnn1-c1nccc(-c2cc(C)sc2C)n1,·,·,–,·,·,·
COc1ccc2cc(CNCc3ccccc3Cl)c(N3CCCC(CO)C3)nc2c1 (stereo not given),·,·,–,·,·,·
Cc1ccc(S(=O)(=O)N2CCCCC2)cc1NC(=O)CSc1nncn1-c1ccccc1,18.4µM,–,–,–,–,–
Cc1nc(NCc2ccco2)c2cn[nH]c2n1,23.1µM,·,–,–,–,–
O=S(=O)(Nc1nc2ccccc2nc1NCc1ccco1)c1ccccc1,–,–,–,–,–,–
c1coc(CNc2nc3nonc3nc2NCc2ccco2)c1,7.31µM,–,–,–,–,–
c1coc(CNc2ncnc3[nH]ncc23)c1,?,–,–,–,–,?
CC1Sc2n(c3ccccc3[n+]2C)N=C1c1ccccc1 (stereo not given),11.6µM,?,–,–,–,?
C[n+]1c2n(c3ccccc31)N=C(c1ccc(Cl)cc1)CS2,?,–,–,–,·,?
O=C(CSc1nnc(Cc2ccccc2)n1Cc1ccco1)NC12CC3CC(CC(C3)C1)C2,25.9µM,–,–,–,–[1.84 µM],–
COC(=O)c1cc(NC(=O)c2cccc(C(F)(F)F)c2)c(=O)oc1C,?,–,–,–,–,–
COC(=O)c1cc(NC(=O)c2cccc(C(F)(F)F)c2)c(=O)oc1C/C=N/OCc1cccc(Cl)c1Cl,–,–,–,–,–,12.6µM
CN(CC(=O)N1CCOCC1)Cc1c(Cl)cccc1NC(=O)c1ccccc1,·,·,–,·,·,·
O=C(Nc1ccc(-c2cc(C(F)(F)F)nn2-c2ccccc2)cc1)c1cccc(F)c1,13µM,?,·,·,?,–
O=C(NC(=O)c1cccc(F)c1)Nc1ccc(-c2cc(C(F)(F)F)nn2-c2ccccc2)cc1,–,–,·,·,–,–
O=[N+]([O-])c1nn(-c2ccc3c(c2)OCCO3)n(O)c1=NC1CCN(Cc2ccccc2)CC1,–,–,–,–,–,–
O=[N+]([O-])c1nn(-c2ccccc2)n(O)c1=NC1CCN(Cc2ccccc2)CC1,–,–,–,–,18.4µM,–
O=C(NCCSc1ccccn1)c1ccc(Cl)cc1,?,–,–,–,–,–
N#CC(Sc1ccccn1)c1ccc(Cl)cc1 (stereo not given),13µM,–,–,–,–,–
Cc1cc(CNC(=O)CCN2Cc3cc(Cl)ccc3OC(C)C2)nn1C (stereo not given),·,·,–,·,·,·
COc1ccccc1/C=C/c1nc2ccccc2[nH]1,·,·,–,·,·,·
c1ccc2[nH]c3cc4ncnc4cc3nc2c1,5.8µM,–,–,?,?,–
SMILES,Nrf2 inh,miR-21 reporter,Glioma ERSR ind,TSG101-PTAP inh,A549 tox,Nrf2 ARE act
FC(F)c1nc2ccccc2[nH]1,–,–,–,–,–,–
Cc1cc2c(s1)c1cnn(Cc3c(F)cccc3C(F)(F)F)c(=O)c1n2C,–,·,·,·,–,·
CC(C)N(CC(=O)Nc1ccc(Cl)cc1C(F)(F)F)C(=O)CCl,13µM,–,–,–,?,?
CCC(C)N(CC(=O)Nc1cccc(C)c1C)C(=O)CCl (stereo not given),?,?,–,–,–,7.94µM
O=C(O)CSCC(=O)Nc1ccc(Cl)cc1C(F)(F)F,–,–,–,–,–,–
O=C1OC2(c3cc(I)c(O)c(I)c3Oc3c2cc(I)c(O)c3I)c2c(Cl)c(Cl)c(Cl)c(Cl)c21,·,·,–,·,·,·
c1ccc(-c2nc(N3CCCCCC3)nc(-n3ccnc3)n2)cc1,–,–,–,–,–,–
c1ccc(-c2nc(N3CCN(c4ccccc4)CC3)nc(-n3ccnc3)n2)cc1,4.61µM,–,–,–,–,–
Cc1cc2c(s1)c1cnn(Cc3ccc(F)cc3)c(=O)c1n2C,–,·,·,·,–,·
Cc1cccc(CSCc2ccc(C(=O)NC(C)C)o2)c1,20.6µM,–,–,–,–,–
Cc1ccc(CNC(=O)c2ccc(CSCc3cccc(C)c3)o2)cc1,·,–,–,·,–,–
O=C(CSc1nncc2ccccc12)N1CCCCC1,10.3µM,–,–,–,–,–
CC(=O)Nc1ccccc1-c1nc(CNC(=O)c2ccc(C)cc2)c(C)o1,·,·,–,·,·,·
Cc1cccc(C)c1Nc1c(-c2ccsc2)nc2ccccn12,18.4µM,–,–,·,–,–
COc1ccc(Nc2cnn(-c3nc4ccccc4s3)c(=O)c2Cl)cc1,?,–,–,–,–,10µM
CCCCn1c(-c2nonc2N)nc2ccccc21,14.6µM,–,–,–,–,–
Nc1nc2sc3c(c2cc1C(=O)NCC(=O)O)CCCC3,8.2µM,–,–,–,–,–
Nc1nc2sc3c(c2cc1C(=O)N1CCOCC1)CCCC3,–,–,–,–,–,–
COc1ccc(NC(=O)CSc2nc(-c3ccccc3)[nH]c2-c2ccccc2)cc1OC,16.4µM,–,–,·,–,–
O=C(CSc1nc(-c2ccc(F)cc2)[nH]c1-c1ccccc1)Nc1ccccc1,20.6µM,–,–,·,–,–
COc1ccc(NC(=O)CSc2nc(-c3ccc(F)cc3)[nH]c2-c2ccc(C)cc2)cc1OC,?,?,–,·,?,–
COc1ccc(-c2nc(SCC(=O)Nc3ccccc3)c(-c3ccc(F)cc3)[nH]2)cc1OC,14.6µM,–,–,·,?,–
COc1ccc(NC(=O)C#Cc2ccccc2)cc1OC,8.2µM,–,?,–,–,–[9.22 µM]
COc1cc(-c2nc(SCC(=O)Nc3ccc(C)cc3)c(-c3ccc(F)cc3)[nH]2)cc(OC)c1OC,?,?,–,·,?,–
COc1ccc(-c2nc(SCC(=O)Nc3ccc4c(c3)OCO4)c(-c3ccc(F)cc3)[nH]2)cc1OC,?,–,–,·,–,–
SMILES,Nrf2 inh,miR-21 reporter,Glioma ERSR ind,TSG101-PTAP inh,A549 tox,Nrf2 ARE act
COc1cc(=O)n2c(c1C(=O)NCc1ccco1)CCN(Cc1ccc3ccccc3c1)CC2,·,·,–,·,·,·
Cc1cc2nccc(/C=C/c3ccc(N(C)C)cc3)c2cc1C,·,·,–,·,·,·
COc1cc(Cn2ncc3c4sc(C)cc4n(C)c3c2=O)cc(OC)c1,–,·,·,·,–,·
COc1ccc(NC(=O)CSc2ncccc2C(=O)OC(C)C)cc1OC,9.2µM,–,–,–,–,–
C=CCSc1nccc(-c2cc(Cl)sc2Cl)n1,–,–,–,–,–,10µM
Cc1cc(C)n2nc(SCC#N)nc2n1,–,–,–,–,–,–
N#CCSc1nccc(-c2cc(Cl)sc2Cl)n1,–,–,–,–,–,7.94µM
